{"source": "paper PMC3183106", "about": "(Pharmacological research : the official journal of the …, 2011)", "key": {"[1]": {"conditions": "mean ± SEM"}, "[2]": {"conditions": "mean ± SEM", "remark": "listed apart in the source"}}, "note": "Where two headings read alike, the source gives them in different places.", "data": [{"substance": "ERN-cysteine", "values": [{"measurement": "Percent of metabolite relative to total for respective ITC in the plasma", "setting": "[1]; 12 hrs after broccoli sprouts, GSTP1 A/A (n=7)", "value": "13.6 ± 0.59", "unit": "%"}, {"measurement": "Percent of metabolite relative to total for respective ITC in the plasma", "setting": "[1]; 12 hrs after broccoli sprouts, GSTP1 A/G (n=5)", "value": "14.6 ± 1.20", "unit": "%"}, {"measurement": "Percent of metabolite relative to total for respective ITC in the plasma", "setting": "[1]; 12 hrs after broccoli supplement, GSTP1 A/A (n=7)", "value": "12.09 ± 0.42", "unit": "%"}, {"measurement": "Percent of metabolite relative to total for respective ITC in the plasma", "setting": "[1]; 12 hrs after broccoli supplement, GSTP1 A/G (n=5)", "value": "12.1 ± 1.59", "unit": "%"}, {"measurement": "Percent of metabolite relative to total metabolites for respective ITC in urine", "setting": "[2]; first 12 hrs after broccoli sprouts, GSTP1 A/A (n=7)", "value": "16.4 ± 1.38", "unit": "%"}, {"measurement": "Percent of metabolite relative to total metabolites for respective ITC in urine", "setting": "[2]; first 12 hrs after broccoli sprouts, GSTP1 A/G (n=5)", "value": "18.4 ± 2.42", "unit": "%"}, {"measurement": "Percent of metabolite relative to total metabolites for respective ITC in urine", "setting": "[2]; first 12 hrs after broccoli supplement, GSTP1 A/A (n=7)", "value": "15.4 ± 2.51", "unit": "%"}, {"measurement": "Percent of metabolite relative to total metabolites for respective ITC in urine", "setting": "[2]; first 12 hrs after broccoli supplement, GSTP1 A/G (n=5)", "value": "16.9 ± 2.68", "unit": "%"}]}]}
